# Tests used:
# patients with early RA [1] = assay: AVERT phase 3b randomized active-controlled trial: signs and symptoms (DAS-defined remission, other remission and ACR measures); format: in vivo, human
# Description: Assessing Very Early Rheumatoid Arthritis Treatment (AVERT) was a phase 3b, randomized, active-controlled trial of 24 months, with a 12-month, double-blind treatment period.
# The study population included adults (≥18 years old) with active clinical synovitis of ≥2 joints for ≥8 weeks, with persistent symptoms for ≤2 years; Disease Activity Score (DAS)28 (C-reactive protein [CRP])≥3.2 and anti-citrullinated peptide (CCP)-2 antibody positivity. […] Patients receiving oral corticosteroids were required to be on a stable dose (≤10 mg/day for ≥4 weeks) at initiation and to maintain that dose until Month 12.
# SC abatacept was administered at 125 mg/week. […] All patients received concomitant folic acid therapy.
# Patients with DAS28 (CRP)≥3.2 were discontinued.
# For the purpose of this study, DAS-defined remission was DAS28 (CRP)<2.6.
# Exploratory endpoints included: Other remission rates (Simplified Disease Activity Index [SDAI; ≤3.3], Clinical Disease Activity Index [CDAI; ≤2.8] and Boolean remission [28-joint tender joint count ≤1 and 28-joint swollen joint count ≤1 and patient global assessment of disease activity [0-10 cm]≤1 and high-sensitivity CRP≤1 mg/dL]), American College of Rheumatology (ACR) responses and Major Clinical Response (ACR 70 response for 6 months at any time period) in each arm.
# Co-primary endpoints were tested in hierarchical fashion. […] All patients who discontinued prior to completing the treatment or withdrawal period were imputed as non-responders for the Month 12 or 18 analyses.
# Endpoints of Disease Activity Score (DAS)-defined remission, SDAI remission, CDAI remission, Boolean remission, ACR 20/50/70 response and Major Clinical Response over time were summarized using descriptive statistics (with 95% confidence intervals at each time point). Missing remission data not due to premature discontinuation and not at Day 1 of the treatment period or at Day 169 of the withdrawal period was imputed as a remission if the missing value occurred between two observed remissions. Missing ACR response data not due to premature discontinuation and not at Day 1 of the treatment period or at Day 169 of the withdrawal period was imputed as an ACR response if the missing value occurred between two observed ACR responses.
# For each treatment arm, a post hoc analysis was performed of mean baseline characteristics for patients who achieved DAS-defined remission at only Month 12 and at both Months 12 and 18, and of the proportions of patients who achieved DAS-defined remission based on these characteristics. An analysis of the overall treatment effect in mean change from baseline in DAS28 (CRP) (including data up to Month 12 of the treatment period) was performed for each treatment arm. Overall treatment effect and treatment differences between the three arms were obtained using a longitudinal repeated measures model including fixed categorical effects of treatment, months, and prior corticosteroid use as well as the continuous fixed covariate of baseline value. An unstructured covariance matrix was used to represent the correlation of the repeated measures within each subject.
# patients with early RA [2] = assay: AVERT trial: HAQ-DI response (≥0.3 points reduction from baseline); format: in vivo, human
# patients with early RA [3] = assay: AVERT trial: contrast MRI of wrist and hand (synovitis, osteitis, erosion score); format: in vivo, human; settings: at 12 months; FIG. 7A-C
# Description: All patients underwent contrast magnetic resonance imaging (MRI) of the wrist and hand of the major affected upper limb at baseline and at 6, 12, 18 and 24 months.
# Adjusted mean MRI change from baseline and standard error was calculated for all arms using a longitudinal repeated measures model. Safety assessments were based on the intent-to-treat population (patients who received≥1 dose of study medication). Analysis of other secondary endpoints is described in the supplementary information.
# [4] = in vivo; cited from earlier work
# [5] = treatment period, compared subgroups not stated
substance,measurement,setting,value
abatacept [Abatacept monotherapy],"other remission endpoints (SDAI, CDAI, Boolean), ACR responses and major clinical response versus MTX over time",patients with early RA [1]; FIG. 4A-D and FIG. 5A-E,numerically higher
same,proportion of patients in DAS-defined remission (DAS28 [CRP]<2.6) at Month 12,"patients with early RA [1]; Month 12 of treatment period, patients with baseline DAS28 (CRP), discontinuations imputed as non-responders",42.5%
same,proportion of patients in DAS-defined remission (DAS28 [CRP]<2.6) at both Months 12 and 18,"patients with early RA [1]; after withdrawal of all RA therapy at Month 12, only patients with DAS28 (CRP) available at baseline",12.4%
same,patients remaining in DAS-defined remission at Month 18,patients with early RA [1]; of the patients who entered the withdrawal period in DAS-defined remission at Month 12,28%
same,Proportion of Patients with DAS-defined Remission (DAS28 [CRP] < 2.6) at Both Months 12 and 18,patients with early RA [1]; post hoc subgroup: baseline DAS28 (CRP) >Median (5.4),2/57 (3.5) %
same,Proportion of Patients with DAS-defined Remission (DAS28 [CRP] < 2.6) at Both Months 12 and 18,patients with early RA [1]; post hoc subgroup: baseline DAS28 (CRP) Missing,0/3 (0) %
same,Proportion of Patients with DAS-defined Remission (DAS28 [CRP] < 2.6) at Both Months 12 and 18,patients with early RA [1]; post hoc subgroup: baseline DAS28 (CRP) ≤Median (5.4),12/56 (21.4) %
same,Proportion of Patients with DAS-defined Remission (DAS28 [CRP] < 2.6) at Both Months 12 and 18,patients with early RA [1]; post hoc subgroup: baseline Erosion >Median (4.5),4/44 (9.1) %
same,Proportion of Patients with DAS-defined Remission (DAS28 [CRP] < 2.6) at Both Months 12 and 18,patients with early RA [1]; post hoc subgroup: baseline Erosion >Q1 (1.5)-Q2 (4.5),5/30 (16.7) %
same,Proportion of Patients with DAS-defined Remission (DAS28 [CRP] < 2.6) at Both Months 12 and 18,patients with early RA [1]; post hoc subgroup: baseline Erosion >Q2 (4.5)-Q3 (8.5),3/23 (13.0) %
same,Proportion of Patients with DAS-defined Remission (DAS28 [CRP] < 2.6) at Both Months 12 and 18,patients with early RA [1]; post hoc subgroup: baseline Erosion >Q3 (8.5),1/21 (4.8) %
same,Proportion of Patients with DAS-defined Remission (DAS28 [CRP] < 2.6) at Both Months 12 and 18,patients with early RA [1]; post hoc subgroup: baseline Erosion Missing,0/14 (0) %
same,Proportion of Patients with DAS-defined Remission (DAS28 [CRP] < 2.6) at Both Months 12 and 18,patients with early RA [1]; post hoc subgroup: baseline Erosion ≤Median (4.5),10/58 (17.2) %
same,Proportion of Patients with DAS-defined Remission (DAS28 [CRP] < 2.6) at Both Months 12 and 18,patients with early RA [1]; post hoc subgroup: baseline Erosion ≤Q1 (1.5),5/28 (17.9) %
same,Proportion of Patients with DAS-defined Remission (DAS28 [CRP] < 2.6) at Both Months 12 and 18,patients with early RA [1]; post hoc subgroup: baseline HAQ-DI >Median (1.375),3/54 (5.6) %
same,Proportion of Patients with DAS-defined Remission (DAS28 [CRP] < 2.6) at Both Months 12 and 18,patients with early RA [1]; post hoc subgroup: baseline HAQ-DI Missing,1/3 (33.3) %
same,Proportion of Patients with DAS-defined Remission (DAS28 [CRP] < 2.6) at Both Months 12 and 18,patients with early RA [1]; post hoc subgroup: baseline HAQ-DI ≤Median (1.375),10/59 (16.9) %
same,Proportion of Patients with DAS-defined Remission (DAS28 [CRP] < 2.6) at Both Months 12 and 18,patients with early RA [1]; post hoc subgroup: baseline Osteitis >Median (0.5),4/55 (7.3) %
same,Proportion of Patients with DAS-defined Remission (DAS28 [CRP] < 2.6) at Both Months 12 and 18,patients with early RA [1]; post hoc subgroup: baseline Osteitis >Q1 (0)-Q2 (0.5),1/4 (25.0) %
same,Proportion of Patients with DAS-defined Remission (DAS28 [CRP] < 2.6) at Both Months 12 and 18,patients with early RA [1]; post hoc subgroup: baseline Osteitis >Q2 (0.5)-Q3 (5),2/27 (7.4) %
same,Proportion of Patients with DAS-defined Remission (DAS28 [CRP] < 2.6) at Both Months 12 and 18,patients with early RA [1]; post hoc subgroup: baseline Osteitis >Q3 (5),2/28 (7.1) %
same,Proportion of Patients with DAS-defined Remission (DAS28 [CRP] < 2.6) at Both Months 12 and 18,patients with early RA [1]; post hoc subgroup: baseline Osteitis Missing,0/14 (0) %
same,Proportion of Patients with DAS-defined Remission (DAS28 [CRP] < 2.6) at Both Months 12 and 18,patients with early RA [1]; post hoc subgroup: baseline Osteitis ≤Median (0.5),10/47 (21.3) %
same,Proportion of Patients with DAS-defined Remission (DAS28 [CRP] < 2.6) at Both Months 12 and 18,patients with early RA [1]; post hoc subgroup: baseline Osteitis ≤Q1 (0),9/43 (20.9) %
same,Proportion of Patients with DAS-defined Remission (DAS28 [CRP] < 2.6) at Both Months 12 and 18,patients with early RA [1]; post hoc subgroup: baseline Pain (100 mm VAS) >Median (62),5/55 (9.1) %
same,Proportion of Patients with DAS-defined Remission (DAS28 [CRP] < 2.6) at Both Months 12 and 18,patients with early RA [1]; post hoc subgroup: baseline Pain (100 mm VAS) Missing,1/3 (33.3) %
same,Proportion of Patients with DAS-defined Remission (DAS28 [CRP] < 2.6) at Both Months 12 and 18,patients with early RA [1]; post hoc subgroup: baseline Pain (100 mm VAS) ≤Median (62),8/58 (13.8) %
same,Proportion of Patients with DAS-defined Remission (DAS28 [CRP] < 2.6) at Both Months 12 and 18,patients with early RA [1]; post hoc subgroup: baseline Synovitis >Median (4.5),5/50 (10.0) %
same,Proportion of Patients with DAS-defined Remission (DAS28 [CRP] < 2.6) at Both Months 12 and 18,patients with early RA [1]; post hoc subgroup: baseline Synovitis >Q1 (2)-Q2 (4.5),5/28 (17.9) %
same,Proportion of Patients with DAS-defined Remission (DAS28 [CRP] < 2.6) at Both Months 12 and 18,patients with early RA [1]; post hoc subgroup: baseline Synovitis >Q2 (4.5)-Q3 (8.5),4/33 (12.1) %
same,Proportion of Patients with DAS-defined Remission (DAS28 [CRP] < 2.6) at Both Months 12 and 18,patients with early RA [1]; post hoc subgroup: baseline Synovitis >Q3 (8.5),1/17 (5.9) %
same,Proportion of Patients with DAS-defined Remission (DAS28 [CRP] < 2.6) at Both Months 12 and 18,patients with early RA [1]; post hoc subgroup: baseline Synovitis Missing,0/14 (0) %
same,Proportion of Patients with DAS-defined Remission (DAS28 [CRP] < 2.6) at Both Months 12 and 18,patients with early RA [1]; post hoc subgroup: baseline Synovitis ≤Median (4.5),9/52 (17.3) %
same,Proportion of Patients with DAS-defined Remission (DAS28 [CRP] < 2.6) at Both Months 12 and 18,patients with early RA [1]; post hoc subgroup: baseline Synovitis ≤Q1 (2),4/24 (16.7) %
same,Proportion of Patients with DAS-defined Remission (DAS28 [CRP] < 2.6) at Both Months 12 and 18,patients with early RA [1]; post hoc subgroup: symptom duration >6 Months,3/45 (6.7) %
same,Proportion of Patients with DAS-defined Remission (DAS28 [CRP] < 2.6) at Both Months 12 and 18,patients with early RA [1]; post hoc subgroup: symptom duration >Median (0.37 years),7/66 (10.6) %
same,Proportion of Patients with DAS-defined Remission (DAS28 [CRP] < 2.6) at Both Months 12 and 18,patients with early RA [1]; post hoc subgroup: symptom duration ≤6 Months,11/71 (15.5) %
same,Proportion of Patients with DAS-defined Remission (DAS28 [CRP] < 2.6) at Both Months 12 and 18,patients with early RA [1]; post hoc subgroup: symptom duration ≤Median (0.37 years),7/50 (14.0) %
same,estimated treatment difference (95% CI) versus MTX in change from baseline in DAS28 (CRP),"patients with early RA [1]; post hoc, overall treatment effect over the 12 months of the treatment period","-0.26 (−0.11, −0.48)"
same,DAS-defined remission rates versus MTX over time,"patients with early RA [1]; treatment period, FIG. 4A, from Day 57 (abatacept plus MTX), at most other time points (monotherapy)",numerically higher
same,time with DAS28 (CRP) <2.6 during the treatment period (first value of 'x vs y'),patients with early RA [1]; [5],8.9 months
same,time with DAS28 (CRP) <2.6 during the treatment period (second value of 'x vs y'),patients with early RA [1]; [5],6.6 months
same,"HAQ-DI Response (≥0.3), proportion of patients",patients with early RA [2]; Month 12,61 (52.6) %
same,"HAQ-DI Response (≥0.3), proportion of patients",patients with early RA [2]; Month 18,19 (16.4) %
same,"decreases from baseline in synovitis and osteitis scores by MRI, compared with MTX",patients with early RA [3],numerically greater decreases
same,half-life,[4],14.3 days

# — patent US20200069772A1, “METHODS OF TREATING EARLY RHEUMATOID ARTHRITIS” (BRISTOL-MYERS SQUIBB COMPANY, priority 2014, published 2020)
